Measured values reported in patent US6127355A (priority 1999, dated 2000).

Tested on: solid tumor HT-29 (human, colon adenocarcinoma)
Assay: Colorectal Xenograft (In vivo HT-29)
Parameters: species or system human tumor in nu/nu mice
Conditions: total active dose 62.5 mg/kg, i.p.
Method: In this Example, the in vivo activity of some of the compounds prepared in accordance with the present invention was assessed using the Murine Leukemia Model and the Colorectal Xenograft model.
Female nu/nu mice (Harlan Sprague Dawley, Madison, Wis.), 18-24 g and 10-14 weeks old, at onset of treatment were used. The solid tumor HT-29 (human, colon adenocarcinoma) was obtained from the ATCC (HTB 38) and grown in DMEM supplemented with 10% FBS. Cells were subcultured once a week and for in vivo experiments viabilities were ≥90%. Mice were housed in microisolator filtration racks, and maintained with filtered acidified water and sterile laboratory chow ad libitum. Following one week of acclimation, tumors were established by injecting 1×10^6 harvested HT-29 tumor cells in a single subcutaneous site, on the flank of mice in the left axillary region. The tumor injection site was observed twice weekly and measured once palpable. The tumor volume for each mouse was determined by measuring two dimensions with calipers and calculated using the formula: tumor volume=(length×width^2)/2. When tumors reached the average volume of 300 mm^3, the mice were divided into their experimental groups. The non-Control groups received Camptothecin 2.5 mg/kg/day, the prodrugs being dosed on the basis of camptothecin content. The mice were sorted to evenly distribute tumor size, grouped into 5 mice/cage, and ear punched for permanent identification. Mice receiving drugs were treated i.p. 5 times a week, Monday through Friday for 5 weeks with 500 μL of test article. Mouse weight and tumor size were measured at the beginning of study and weekly through week 7. The overall growth of tumors was expressed as the percent change in tumor size calculated by subtracting mean initial tumor volume from mean tumor volume at the end of the treatment and dividing by mean initial tumor volume.

Substance: Camptothecin-20-O-Glycinate PEG40kDa -Amide Derivative [Compound 48]
- Body weight change (%) (week 5 (end of treatment)): -9%
- Mortality (%) (week 5 (end of treatment), 50400 min): 0%
- Body weight change (%) (week 7 (2 week post treatment)): +25%
